By UniProt entry, the sequences of proteins in these tests, tags left out.
UniProt Q01959, whole entry: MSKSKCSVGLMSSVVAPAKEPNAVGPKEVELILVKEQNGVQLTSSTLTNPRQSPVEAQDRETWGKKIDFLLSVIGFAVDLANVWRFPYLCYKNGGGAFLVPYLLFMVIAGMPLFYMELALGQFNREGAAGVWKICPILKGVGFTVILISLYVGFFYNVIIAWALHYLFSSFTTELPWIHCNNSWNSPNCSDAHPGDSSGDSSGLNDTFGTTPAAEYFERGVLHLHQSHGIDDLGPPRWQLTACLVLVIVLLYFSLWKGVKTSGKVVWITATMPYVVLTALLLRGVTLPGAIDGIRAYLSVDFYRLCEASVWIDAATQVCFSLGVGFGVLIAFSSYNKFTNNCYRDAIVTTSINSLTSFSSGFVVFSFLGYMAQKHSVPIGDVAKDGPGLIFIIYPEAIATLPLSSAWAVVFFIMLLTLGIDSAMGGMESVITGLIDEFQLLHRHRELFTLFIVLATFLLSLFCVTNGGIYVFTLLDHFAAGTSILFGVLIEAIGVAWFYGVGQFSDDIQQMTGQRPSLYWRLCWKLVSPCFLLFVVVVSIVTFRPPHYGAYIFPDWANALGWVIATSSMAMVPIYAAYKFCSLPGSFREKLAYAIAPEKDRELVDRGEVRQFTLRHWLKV

According to PMC2914574 (Journal of neurochemistry, 2010):

Biological target: WT hDAT (Homo sapiens, UniProt Q01959)
Experiment: inhibition of [3H]DA uptake in intact HEK-hDAT cells
Type: cell-based
Settings: 5 min

Structure (SMILES): C[C@@H](N)Cc1ccccc1 [(l)-amphetamine, reference compound]
- Uptake Kapp, WT: 664.6 ± 60.4 nM
